One compound from ChEMBL document CHEMBL4814060, “Design, synthesis and biological evaluation of novel pleuromutilin derivatives as potent anti-MRSA agents targeting the 50S ribosome” (Bioorg Med Chem, 2021) can be followed below.

The chains behind the UniProt entries cited, without tags or fusion partners. Where a name states a change or a piece, a line headed by the entry shows the natural chain unless it says otherwise.
UniProt P0A7J3: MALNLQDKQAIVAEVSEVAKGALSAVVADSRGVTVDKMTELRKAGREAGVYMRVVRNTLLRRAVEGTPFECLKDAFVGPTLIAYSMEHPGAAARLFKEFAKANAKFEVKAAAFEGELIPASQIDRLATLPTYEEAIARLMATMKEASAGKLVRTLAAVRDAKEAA
UniProt P0A7L0: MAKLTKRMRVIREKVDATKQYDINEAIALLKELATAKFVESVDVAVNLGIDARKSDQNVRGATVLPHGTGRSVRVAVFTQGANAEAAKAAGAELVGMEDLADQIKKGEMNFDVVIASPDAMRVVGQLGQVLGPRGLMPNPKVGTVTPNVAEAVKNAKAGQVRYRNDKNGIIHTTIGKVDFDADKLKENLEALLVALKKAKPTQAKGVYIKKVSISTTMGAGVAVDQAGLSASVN
UniProt P0A7N1: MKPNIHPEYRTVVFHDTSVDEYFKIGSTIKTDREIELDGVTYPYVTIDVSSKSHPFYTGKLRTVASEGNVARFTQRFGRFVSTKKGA
UniProt Q2EEQ2: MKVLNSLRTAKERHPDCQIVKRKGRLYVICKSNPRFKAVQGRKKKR

This assay has as its target Bacterial 70S ribosome (Bacteria) (UniProt P0A7V0+P60723+P0AG67+P0A7R5+P0A7R9+P0A7S3+P0A7S9+P0AG59+P0ADZ4+P0A7T3+P0AG63+P0A7T7+P0A7U3+P0A7U7+P68679+P0A7V3+P0A7V8+P0A7W1+P02358+P02359+P0A7W7+P0A7X3+P0A7J3+P0A7J7+P0AA10+P0ADY3+P02413+P0ADY7+P0AG44+P0C018+P0A7K6+P0A7L0+P0A7L3+P0AG48+P61175+P0ADZ0+P60624+P68919+P0A7L8+P0A7M2+P0A7M6+P60422+P0AG51+P0A7N1+P0A7M9+P0A7N4+P0A7N9+P0A7P5+P0A7Q1+Q2EEQ2+P0A7Q6+P60438+P62399+P0AG55+P0A7K2). Kind of assay: Binding affinity to Staphylococcus aureus ATCC 43300 50S ribosome assessed as dissociation rate constant by SPR analysis. It is filed as subcellular. In outline:
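The 50S subunit was purified from ATCC 43300 by sucrose cushion, a 7–30% sucrose gradient and PEG precipitation. Compounds at 100 µM in DMSO were photo-crosslinked onto the chip and printed four times each. Ribosome at 200–3200 nM in PBST (pH 7.4, 0.1% Tween 20) was run at 4 °C: association 600 s, then dissociation 360 s, both at 0.5 µL/s. Surface was regenerated with glycine-HCl pH 2.0.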
On the technique in general: SPR reads the build-up and loss of mass on a sensor chip optically.

With `C=C[C@]1(C)C[C@@H](OC(=O)CSCCN(CC)CC)[C@]2(C)[C@H](C)CC[C@]3(CCC(=O)[C@H]32)[C@@H](C)[C@@H]1O` [TIAMULIN], the Kdiss is 2.5 10^-8M.
